Values joined by “and” are separate entries in the source; they are usually repeats but may differ in a detail not shown here. Equal entries are not always repeated.
Assay: Validation of the HPLC-HRMS method for N-nitroso-ribociclib (precision, accuracy, linearity, LOQ, stability of standard and sample solutions)
Settings: for NNR in sample solution, single replicate / NNR in sample solution, Average (ppm): AS at room temperature
Protocol: The method was validated in the range 0.0625 ppm to 12.5 ppm N-nitroso-ribociclib (NRR) with regard to ribociclib free base. For the purpose of this validation only, the 100% target limit was set at 3.75 ppm (1500 ng NRR/400 mg ribociclib free base).
Six replicates of the “Sample solution” were prepared according to the procedure described above and tested on the same day. The results are expressed as ppm of NNR with regard to ribociclib free base (μg NNR/g ribociclib free base)
Two series of six replicates of the “Sample solutions” were prepared according to the procedure described above and tested by two different analysts, on two different days, using different LC/MS systems and different columns. The results are expressed as ppm of NNR with regard to ribociclib free base (μg NNR/g ribociclib free base)
Three replicates of calibration standard solutions L1 (c=0.5 ng/ml) and L6 (c=100 ng/ml) were prepared according to the procedure described above. Solutions were stored in the dark at room temperature (autosampler (AS) vials). After a period of time, the solutions were reanalyzed. The stability of standard solutions is evaluated by determining the relative difference between the responses […] The results are expressed as concentration in ng/ml, determined from calibration curve in each sequence (time point).
Three replicates of Sample solution were prepared according to AP. The replicates were analysed at t=0 h and after app. 24 hours and 48 hours of storage in vials AS at room temperature. The results are expressed as ppm of NNR wrt ribociclib free base. (μg NNR/g ribociclib free base).
In addition, FCT samples stored in flasks on the bench were filtered at defined time point and analysed. For 48 hours stability, composite samples (from Accuracy) were used.
Sample solutions were prepare according to the procedure described above using 10 mL, 25 mL and 50 mL flasks, three replicates for each volume. Results for 25 mL and 50 mL were compared to 10 mL volume that is prescribed in the AP. The results are expressed as ppm of NNR with regard to ribociclib free base (μg NNR/g ribociclib free base)
For ribociclib succinate drug substance, the same drug substance batch (834325A001) was tested unspiked and spiked at three levels in three independent replicates.
For ribociclib FCT, one composite sample preparation and three replicates of spiked composite sample solutions (prepared as described above) were prepared and tested on the same day.
The samples (drug substance or composite sample) were spiked at 0.5 ng/ml (0.0625 ppm), 30 ng/mlL (3.75 ppm) and 100 ng/ml (12.5 ppm) levels. Amount of NNR present in the unspiked sample was subtracted and recoveries were calculated as a ratio between amounts found and amounts added.
Three replicates of calibration solutions that were prepared for different sequences are presented in the Table below and in FIGS. 14A-14D. In each sequence, calibration solution L1 was injected six times as part of SST test (Repeatability of injections) and the average response was taken for the calculation of calibration curve. Linear regression was weighed with 1/amount.
Amount of NNR present in the unspiked sample was subtracted (see above) and RSD of corrected amounts calculated.

NNR Average (ppm), Intraday (n = 6) [ppm]	NNR in sample solution, single replicate (0 h)	NNR in sample solution, Average (ppm) (24 h)	NNR in sample solution, single replicate (24 h)	NNR in sample solution, Average (ppm) (48 h)	NNR in sample solution, single replicate (48 h)	Structure (SMILES)	NNR (ppm), Intraday precision, single replicate (sample solution, replicates R1-R6, wrt ribociclib free base)
0.238						CN(C)C(=O)c1cc2cnc(Nc3ccc(N4CCNCC4)cn3)nc2n1C1CCCC1.O=C(O)CCC(=O)O [ribociclib succinate drug substance]	0.243 ppm and 0.235 ppm and 0.238 ppm and 0.236 ppm
	0.243 ppm and 0.235 ppm	0.225	0.225 ppm and 0.222 ppm	0.226	0.229 ppm and 0.223 ppm and 0.225 ppm	CN(C)C(=O)c1cc2cnc(Nc3ccc(N4CCNCC4)cn3)nc2n1C1CCCC1.O=C(O)CCC(=O)O [Ribociclib succinate drug substance]	
